Reference: patent US9751882B2, “Diaryl[A, G]quinolizidine compound, preparation method therefor, pharmaceutical composition, and uses thereof” (SHANGHAI INSTITUTE OF MATERIA MEDICA, CHINESE ACADEMY OF …, priority 2012, dated 2017)

Sequences of proteins named here, by UniProt entry; tags and fusion partners are left off.
UniProt O77680, whole entry: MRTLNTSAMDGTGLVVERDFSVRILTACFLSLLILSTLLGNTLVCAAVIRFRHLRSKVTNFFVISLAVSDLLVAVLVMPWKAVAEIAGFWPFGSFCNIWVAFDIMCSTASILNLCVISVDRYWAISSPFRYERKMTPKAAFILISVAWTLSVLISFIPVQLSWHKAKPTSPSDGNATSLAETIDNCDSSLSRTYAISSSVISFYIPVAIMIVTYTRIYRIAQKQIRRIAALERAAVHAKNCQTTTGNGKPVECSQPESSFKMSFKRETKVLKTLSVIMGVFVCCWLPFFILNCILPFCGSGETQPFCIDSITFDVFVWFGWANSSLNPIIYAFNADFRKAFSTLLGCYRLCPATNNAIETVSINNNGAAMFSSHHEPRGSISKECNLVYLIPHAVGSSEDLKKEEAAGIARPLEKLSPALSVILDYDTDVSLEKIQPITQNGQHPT

Target: dopamine D1 receptor (Macaca mulatta, UniProt O77680)
Assay: Radioligand binding affinity on dopamine D1 receptor ([3H]-SCH23390)
Conditions: D1 receptor protein expressed in HEK-293 cells
Method: (1) Determination of the affinity of the diarylo[a,g]quinolizines of formula (I) and derivatives thereof on dopamine D1, dopamine D2, 5-HT1A and 5-HT2A receptors.
The compound of the invention at different concentrations (10^−5 M-10^−11 M), an isotope receptor ligand and a receptor protein were loaded into a reaction tube, incubated at 30° C. in a water bath for 60 min, and then terminated in a refrigerator. The mixture was filtered through suction filtration using GF/C glass fiber paper on a Millipore filter (millipore) cell sample collector, and dried. The resulting sample was placed into a 0.5 mL tube, added with 500 μL of liquid scintillation fluid, and counted for measuring the intensity of radioativity.
For dopamine D1 receptor: isotope receptor ligand [^3H]-SCH23390 (85.0 Ci/mmol) (D1-selective, purchased from Amersham Corporation), D1 receptor protein expressed in HEK-293 cells;
Firstly, the above […] were dissolved in DMSO and then diluted with double distilled water to the appropriate concentration (10^−5 M-10^−11 M).
(+) Butaclamo was purchased from RBI Company, GF/C glass fiber filter paper was purchased from Whatman Co., liquid scintillation fluid (dopamine D1, D2 receptors)/liposoluble scintillation fluid (5-HT1A. 5-HT2A receptor), Beckman LS-6500 multi-function liquid scintillation counter.

COc1cc2c(cc1O)[C@@H]1Cc3sc(CC(C)C)cc3CN1CC2 [DS006, (S)-2-hydroxy-3-methoxy-10-(2-methylpropyl)-5,8, 12,12a-tetrahydro-6H-benzo[a]thieno[3,2-g]quinolizine]
D1 receptor inhibition %: 94.29%
